From PMC10266688 (PLOS ONE, 2023)
“And” between values parts separate entries of the source, which are not always exact repeats. Equal values may be shown once. Read-outs that look alike come from different tables or passages of the source.

Key:
[1] = mouse, in vivo
[2] = Repeat dosing toxicity study: hematologic parameters; settings: female CD1 mice, Up284 20 mg/kg, Bortezomib 1 mg/kg

SMILES: N#Cc1ccc(/C=C2/C(=O)/C(=C/c3ccc(C#N)cc3)C23CCNCC3)cc1 [Up284]
- MID, % ([1]; ip, 40 mg/kg): 5.43%
- WBC ([1]; po, 200 mg/kg): 3.40 10^9/L
- MPV ([2]; group Mean): 5.40 fL
- WBC ([2]; group Mean): 3.60 10^9/L
- MPV ([2]; individual mice): 5.40 fL
- WBC ([2]; individual mice): 3.80 10^9/L and 2.20 10^9/L
